DBAASP
Values after ≈ are worked out from the molar mass of the structure shown.

Columns and labels:
Test in all cases: ≥ marks a high value that may be exact or a test limit, other limits are often not marked, values filed in µg/mL are converted to µM
[1] = test system: Staphylococcus aureus ATCC 12600
[2] = test system: Pseudomonas aeruginosa ATCC 27853
[3] = test system: Escherichia coli K-12

## CC[C@H](C)[C@H](NC(=O)[C@H](C)NC(=O)[C@H](CCCCN)NC(=O)[C@H](Cc1c[nH]c2ccccc12)NC(=O)[C@H](CC(N)=O)NC(=O)[C@@H](N)CC(C)C)C(=O)N[C@@H](CC(C)C)C(=O)N[C@@H](CCCCN)C(=O)N[C@@H](Cc1cnc[nH]1)C(=O)N[C@H](C(=O)N[C@H](C(=O)N[C@@H](CCCCN)C(=O)O)[C@@H](C)CC)[C@@H](C)CC [LNWKAILKHIIK]
[1]
  MIC: ≥ 128 µM
[2]
  MIC: 16 µM (≈ 23.6 µg/mL)
[3]
  MIC: 16 µM (≈ 23.6 µg/mL)

## CC[C@H](C)[C@H](NC(=O)[C@@H]1CCCN1C(=O)[C@H](CCCCN)NC(=O)[C@H](CC(C)C)NC(=O)[C@H](C)NC(=O)[C@@H](NC(=O)[C@H](Cc1cnc[nH]1)NC(=O)[C@H](CC(C)C)NC(=O)[C@@H](NC(=O)[C@@H](NC(=O)[C@H](CCCN=C(N)N)NC(=O)[C@H](C)NC(=O)[C@@H]1CCCN1C(=O)[C@H](CO)NC(=O)[C@H](CCCCN)NC(=O)[C@H](Cc1ccccc1)NC(=O)[C@@H](NC(=O)[C@H](CCCCN)NC(=O)[C@H](CC(C)C)NC(=O)[C@H](Cc1ccccc1)NC(=O)[C@H](CO)NC(=O)[C@H](CCCCN)NC(=O)[C@H](Cc1c[nH]c2ccccc12)NC(=O)[C@@H](N)CCCCN)[C@@H](C)O)[C@@H](C)O)C(C)C)[C@@H](C)O)C(=O)N[C@@H](CO)C(=O)N[C@@H](CO)C(=O)O [KWKSFLKTFKSPARTVLHTALKPISS]
[1]
  MIC: ≥ 128 µM
[3]
  MIC: 16 µM (≈ 47.6 µg/mL)
